The test system of this test is Patient four. The test can be described thus: Protocol and results with patient four (morbid obesity, cardiomyopathy). The format is in vivo, human. The settings on record: combination Adipex-P 37.5 one-half + Zoloft 25 mg + Aricept 1.25 mg + fenfluramine 5 mg (+ atenolol 12.5 mg). The protocol: This person has been in the practice for several years. Their medical problems surround a cardiomyopathy with a low cardiac output state and heart failure. They also have a history of hypertension, hypothyroidism on therapy, and morbid obesity.
Medication alterations continued over the next several months with increasing Ionamin to 30 mg. Hytrin was added at 2 mg because of prostatic symptoms and in November Pondimin was added.
Adipex-P 37.5 one-half was added to their medications. […]

Molecules are shown by their SMILES. Structures can show the parent of a compound that is named as a salt.

As to `CN[C@H]1CC[C@@H](c2ccc(Cl)c(Cl)c2)c2ccccc21` [Zoloft, sertraline HCl], the cardiac index remeasured result is “even more improved than previously”. Besides, the “body weight the next month” value (from 235 lb June 1999) turned out to be 218.

The record behind these values is US6617361B2, “Behavior chemotherapy” (Be Able, LLC, priority 1999, dated 2003).
